{"sequences": {"note": "Chains of the proteins cited; added tags and fusions are not shown.", "UniProt P34972, whole entry": "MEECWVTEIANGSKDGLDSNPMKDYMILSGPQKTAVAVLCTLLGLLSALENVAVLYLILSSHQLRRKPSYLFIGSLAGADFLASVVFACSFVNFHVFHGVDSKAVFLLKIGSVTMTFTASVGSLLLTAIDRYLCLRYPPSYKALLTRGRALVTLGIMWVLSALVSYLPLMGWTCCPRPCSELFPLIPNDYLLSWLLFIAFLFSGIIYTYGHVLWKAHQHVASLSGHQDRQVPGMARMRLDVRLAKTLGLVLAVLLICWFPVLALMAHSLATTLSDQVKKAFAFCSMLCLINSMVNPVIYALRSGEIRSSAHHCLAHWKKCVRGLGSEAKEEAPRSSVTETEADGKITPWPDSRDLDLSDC"}, "source": "paper PMC11277192", "about": "(International Journal of Molecular Sciences, 2024)", "target": "T1, CB2 receptor (Homo sapiens, UniProt P34972)", "T1 construct": "host or cells: CHO-K1 (from the C2 catalogue suffix and 'same protocol' as CB1)", "assay": "CB2 antagonist cAMP assay (HitHunter cAMP XS+), CP55,940 challenge", "format": "cell-based", "settings": "read-out: CB2 antagonist IC50 (not reached within tested concentrations)", "procedure": "This observed difference was small but statistically significant (p < 0.0001).\nThe assay signal was generated through incubation with 20 μL cAMP XS+ ED/CL lysis cocktail for one hour, followed by incubation with 20 μL cAMP XS+ EA reagent for three hours at room temperature.\nFor the CB1 and CB2 antagonist assays, cells were pre-incubated with antagonists/compounds, followed by an agonist challenge at an ~EC80 concentration. Similar to the agonist assay, before adding the ligands, media were aspirated from cells and replaced with 15 µL 2:1 HBSS/10mM HEPES/cAMP XS+ Ab reagent. […] A total of 5 μL of the solution containing 4× EC80 of (±)-CP 55,940 and 4× EC80 of forskolin was added to the cells (final (±)-CP 55,940 concentration = 1 nM) and incubated at 37 °C for 30 min. The assay signal was generated through incubation with 20 μL cAMP XS+ ED/CL lysis cocktail for one hour, followed by incubation with 20 μL cAMP XS+ EA reagent for three hours at room temperature. A PerkinElmer Envision instrument was used for chemiluminescent signal detection.\nMore detailed assay protocols are available free of charge on the Eurofins website (Catalog #: 95-0071C2 for CB1 and 95-0183C2 for CB2 [35]).", "data": [{"smiles": "C=C(C)[C@@H]1CCC(C)=C[C@H]1c1c(O)cc(CCCCC)cc1O", "note": "[CBD, Cannabidiol]", "values": [{"measurement": "IC50", "result": "> 12", "unit": "µM"}]}]}
